Literature values as cited in patent US20250026710A1, “PROCESS FOR PREPARING A BENZOATE SALT OF A 1-(3-AMINOPYRROLIDINE-1-CARBONYL)-3,4-DIPHENYLBENZENE COMPOUND” (Astex Pharmaceuticals, Inc., priority 2021, published 2025).

Conditions: rats, dose 32 mg/5 mL/kg

- drug adsorption/exposure (compared with free form and sorbic acid salt): superior drug adsorption/exposure
- AUC (listed as benzoic acid salt of Compound (A)): 16.13 µM·h
Structure (SMILES): CC(C)(O)Cc1ccc(-c2ccc(C(=O)N3CC[C@H](N)C3)cc2-c2ccc(C#N)c(F)c2)c(F)c1 [benzoate salt of Compound (A)]

Counter-ions that a name gives are not always drawn.
